Reference: patent publication US20050238685A1, “Method of binding a compound to a surface” (priority 2002, published 2005)

Columns and labels:
[1] = Different enzymes immobilized via SC3 hydrophobin on TEFLON, spectrophotometry at 412 and 435 nm; type: biochemical; conditions: SC3-coated TEFLON
Procedure: Oxido-reductases (glucose oxidase, peroxidase laccase), hydrolases (lipase, esterase) and a protease (tryspin) were immobilized via the SC3 hydrophobin on TEFLON™. The surface was first coated with SC3 hydrophobin by immersion in the protein aqueous solution (0.3 mg/mL) during approximately 30 minutes. The obtained modified surface was then immersed in an aqueous enzyme solution during approximately 30 minutes. After each step, the TEFLON™ surface was rinsed with an adequate buffer solution. Activity of the immobilized enzymes was followed by spectrophotometry at 412 and 435 nm after immersion of the functionalized surface in the corresponding substrate solution. The optical density of the solution increases after the immersion of the functionalized surface and stays constant after its removal. […] The functionalized TEFLON® was stored at 4° C. in an Eppendorf tube containing a buffer solution.
Enzymes used: glucose oxidase from Aspergillus niger (SIGMA; 210 U/mg of solid, final concentration 1.0 mg/mL), horseradish peroxidase (SIGMA; 1520 U/mg of solid, final concentration 0.14 mg/mL), laccase from Trametes sp. (Biocatalysts, Wales; final concentration 2.1 mg/mL), lipase from Candida cylindracea (Biocatalysts, Wales; final concentration 0.25 mg/mL), porcine liver esterase (SIGMA; 41 U/mg of solid, final concentration 2.4 mg/mL), bovine pancreas trypsin (SIGMA; 8,750 U/mg of solid). […]

[2] = Circular dichroism of enzymes on binding to bare or hydrophobin-coated colloidal TEFLON; type: physicochemical; conditions: bare colloidal TEFLON
[3] = stored in a sealed container, not in liquid, at 4° C., tested frequently
Procedure: Glassy carbon electrode was coated with hydrophobin by placing the electrode in a solution of hydrophobin (100 μg/ml) and incubating for 15 minutes, after which the electrode was thoroughly rinsed with water.
The electrode, modified and functionalized with the enzyme, was placed in a three electrode system, including an Ag/AgCl reference electrode and a Pt counter electrode, using phosphate buffer pH 7 (25 mM).
The modified electrode was stored in a sealed container, not in liquid, at 4° C., and tested frequently for activity and response to glucose.

For glucose oxidase, the “state of immobilized enzymes (denaturation, desorption)” value [1] was “not denatured and are not desorbed from the surface”, the function after storage ([1]; 4° C. in buffer solution) was “still functional after several weeks” and the “structural change in CD-spectra upon binding” value [2] was “underwent structural changes”. For the same substance, the “period tested over which the electrode maintained its activity” value [3] was 67 days.
